Rows were chosen to be rich in hits. Some 2.2% of all compounds tested hit in one or more screens of this group.
ERp5 inh = inhibitors of human ERp5; Q15084; ERp5 insulin aggregation, absorbance 650 nm, 90 min; inhibition, % at 9.99 µM; 350,000 compounds, 0.05% hits; AID 651711;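 active means mean replicate inhibition above about 25%, with every replicate also reaching it, limit read from the data, passing the limit was not always enough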
PDI inh = blocks human protein disulfide isomerase activity. inhibition, % at 10 µM. P07237. 350,000 compounds, 0.052% hits. AID 588391. PDI insulin aggregation turbidity, A650, 90 min;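 active means mean inhibition across replicates of 30% or more, whatever share of single replicates reach that level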
Yeast UUG start = yeast start codon fidelity modulation. S. cerevisiae UUG-firefly luciferase reporter, luminescence/redox ratio. activity score, % at 18.7 µM. 0.13% of 350,000 active;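 active = replicate mean at a twofold rise or more, about +100% in these data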;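 also: firefly luciferase made from a UUG start codon reports start codon fidelity; reporter light over untreated wells divided by growth signal over untreated wells; some hits fall short of that in this replicate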
FGF22 binding-1 = shifts melting point of recombinant human FGF22 | activity (Tm shift, normalised), % at 9.99 µM | recombinant FGF22 thermal shift, SYPRO orange fluorescence; percent of sucrose octasulfate shift, DMSO zero | 340,000 compounds, 1.5% hits | Q9HCT0;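 active means mean Tm shift, scaled 0 neutral to 100 positive control, at about 1.3% or above, every replicate too, limit read from the data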
S100A4 inh HTS = S100A4-myosin IIA interaction inhibition; 360,000 compounds, 0.14% hits; AID 652163; S100A4/TAMRA-MyoIIA peptide fluorescence polarization; inhibition, % at 10.7 µM; P26447;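 active means mean inhibition of at least 70% across replicates, with every replicate also reaching that level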
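incubation = readout 5 min after mixing, signal stable up to 60 min | system = S100A4 monomer protein | buffer or medium = HEPES pH 7.2 with CaCl2, KCl, NaCl, DTT, Triton | benchmarks = neutral control DMSO, positive control TFP | also added = fluorescent myosin IIA peptide, 5 nM | compound dosing = one concentration per compound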
SIRT5 block = inhibitors of human sirtuin-5 desuccinylase | Purified SirT5, succinyl-peptide AMC, trypsin-coupled fluorescence | 330,000 compounds, 1.1% hits | inhibition, % at 15 µM | Q9NXA8; in the data active means inhibition above about 15%
FGF22 binding-2 = binds human FGF22 shifting its melting temperature | recombinant FGF22 thermal shift, SYPRO orange fluorescence | thermal shift activity, °C (ΔTm) at 38 µM | AID 720646 | shares compounds with FGF22 binding-1 | 1,000 compounds, 2% hits;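 active means fitted rise in melting shift crosses a set limit at or below the top valid dose tested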
TSA no protein = counter-screen for FGF22 binders: compound-only thermal shift, no protein. AID 743019. compound-only SYPRO orange thermal shift counter-screen. shares compounds with FGF22 binding-1. AC50, µM (highest dose often 38 µM). 1,000 compounds, 2% hits;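 active means rising signal whose fitted curve reaches the 0.54 level within the top valid dose, showing a melting point, actives reach about 13 µM in these data; inactive means the rest, including activity in the opposite direction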; further: value is where the raw curve crosses a fixed level and not half-maximal
Active calls of the source: *; [ ] = another dose, or the depositor's remark.

Results for CCC(=O)N[C@H]1CC[C@H](CCn2cc(CN(C)C)nn2)O[C@H]1CO ?
ERp5 inh: -3.9; Yeast UUG start: 4.8; FGF22 binding-1: -0.2; S100A4 inh HTS: 15.6; SIRT5 block: 1.2

How did CC(C)NC(=O)Nc1ccc2c(c1)C(=O)N(C)[C@H]1CC[C@H](CC(=O)NCC(F)(F)F)O[C@H]1CO2 do in these assays?
Yeast UUG start: -2.6; FGF22 binding-1: 0.0

Results for O=C(NN=Cc1ccc(O)cc1O)c1ccccc1NS(=O)(=O)c1cccs1 ?
ERp5 inh: -5.1; PDI inh: 7.6; Yeast UUG start: -11.8; FGF22 binding-1: 1.9*; S100A4 inh HTS: 2.5; SIRT5 block: 5.8; FGF22 binding-2: 0.241; TSA no protein: inactive

Results for COc1ccc(C=NNC(=O)c2ccccc2NS(=O)(=O)c2cccs2)cc1O ?
ERp5 inh: -7.2; PDI inh: -8.5; Yeast UUG start: -12.9; FGF22 binding-1: -0.1; S100A4 inh HTS: 2.6; SIRT5 block: -0.9

Results for COc1ccc(CNC(=O)C[C@@H]2C=C[C@H](NS(=O)(=O)c3cccc(OC)c3)[C@H](CO)O2)cc1 ?
ERp5 inh: -1.5; Yeast UUG start: 0.2; FGF22 binding-1: -0.4; S100A4 inh HTS: 4.7; SIRT5 block: 2.8

What do the screens show for `O=C(NC[C@H]1CC[C@@H]2[C@@H](CN2Cc2cccc(Cl)c2)O1)C1CC1`?
ERp5 inh: -0.2; S100A4 inh HTS: 11.1; SIRT5 block: -3.9

Results for O=C(C[C@H]1CC[C@@H]2[C@H](COC[C@@H](O)CN2C(=O)c2ccc(F)cc2)O1)Nc1ccc(-c2ccccc2)cc1 ?
ERp5 inh: -4.0; FGF22 binding-1: -0.2; S100A4 inh HTS: -25.4

Results for COc1ccc(Nc2nnc(-c3ccncc3)s2)cc1Cl ?
ERp5 inh: 0.6; PDI inh: -9.4; Yeast UUG start: -21.7; FGF22 binding-1: 1.5*; S100A4 inh HTS: -1.7; SIRT5 block: -1.8; FGF22 binding-2: 0.061; TSA no protein: inactive

What do the screens show for `COc1ccc(Cl)cc1Nc1nnc(-c2ccncc2)s1`?
ERp5 inh: 6.5; PDI inh: -9.8; Yeast UUG start: 34.1; FGF22 binding-1: 0.1; S100A4 inh HTS: -3.3; SIRT5 block: -2.8

How did COCCN1CCN(Cc2nc(Cc3ccc(OC)c(OC)c3)no2)CC1 do in these assays?
ERp5 inh: -10.0; PDI inh: -5.7; Yeast UUG start: 8.9; FGF22 binding-1: 8.0*; S100A4 inh HTS: 3.7; SIRT5 block: -1.0; FGF22 binding-2: 0.052; TSA no protein: inactive

What do the screens show for `COc1ccc(Cc2noc(CN3CCN(Cc4csc(C)n4)CC3)n2)cc1OC`?
ERp5 inh: 1.5; PDI inh: -1.0; S100A4 inh HTS: -5.0; SIRT5 block: -4.1

What do the screens show for `Cc1noc(C)c1NC(=O)N(C)C[C@H]1OCCCC[C@H](C)Oc2ccc(NS(C)(=O)=O)cc2C(=O)N([C@@H](C)CO)C[C@H]1C`?
Yeast UUG start: 6.8; FGF22 binding-1: 0.3

What do the screens show for `CC(C)CC(=O)n1sc(NC(=O)c2ccccc2)nc1=O`?
ERp5 inh: 9.8; PDI inh: -0.9; Yeast UUG start: 15.0; FGF22 binding-1: 2.5*; S100A4 inh HTS: 1.0; SIRT5 block: -2.5; FGF22 binding-2: 0.022; TSA no protein: inactive

How did Cc1ccc(C(=O)Nc2nc(=O)n(C(=O)CC(C)C)s2)cc1 do in these assays?
ERp5 inh: -0.9; PDI inh: -0.7; FGF22 binding-1: 0.1; S100A4 inh HTS: -8.4; SIRT5 block: 0.1

How did CCCN(C)C[C@@H]1OCCCC[C@@H](C)Oc2ccc(NC(=O)NC(C)C)cc2C(=O)N([C@H](C)CO)C[C@@H]1C do in these assays?
ERp5 inh: 2.1; FGF22 binding-1: 0.5; S100A4 inh HTS: -6.8; SIRT5 block: -0.7

How did COc1ccc(S(=O)(=O)Nc2ccc3c(c2)C(=O)N([C@H](C)CO)C[C@@H](C)[C@@H](CN(C)C)OCCCC[C@@H](C)O3)cc1 do in these assays?
ERp5 inh: 3.1; FGF22 binding-1: -0.4; S100A4 inh HTS: -2.4; SIRT5 block: -3.1

Results for CCCN(C)C[C@@H]1OCCCC[C@@H](C)Oc2ccc(NC(=O)NC(C)C)cc2C(=O)N([C@@H](C)CO)C[C@@H]1C ?
ERp5 inh: 2.4; FGF22 binding-1: 1.4*; S100A4 inh HTS: 12.5; SIRT5 block: 3.3; FGF22 binding-2: 0.066; TSA no protein: inactive

How did CC(C)NC(=O)Nc1ccc2c(c1)C(=O)N([C@@H](C)CO)C[C@@H](C)[C@@H](CN(C)C(=O)Nc1ccccc1)OCCCC[C@@H](C)O2 do in these assays?
ERp5 inh: -4.1; FGF22 binding-1: 28.0*; S100A4 inh HTS: 4.1; SIRT5 block: 4.1; FGF22 binding-2: 0.167; TSA no protein: inactive

What do the screens show for `COc1ccc(S(=O)(=O)Nc2ccc3c(c2)C(=O)N([C@@H](C)CO)C[C@@H](C)[C@@H](CN(C)C)OCCCC[C@@H](C)O3)cc1`?
ERp5 inh: -0.2; FGF22 binding-1: 2.1*; S100A4 inh HTS: -3.3; SIRT5 block: 2.0; FGF22 binding-2: 0.075[42 µM]; TSA no protein: inactive

What do the screens show for `CNC[C@H]1OCCCC[C@@H](C)Oc2ccc(NC(=O)Nc3ccc(C(F)(F)F)cc3)cc2C(=O)N([C@H](C)CO)C[C@@H]1C`?
ERp5 inh: -2.9; Yeast UUG start: -3.3; FGF22 binding-1: 7.0*; S100A4 inh HTS: -1.7; SIRT5 block: -0.5; FGF22 binding-2: 0.073[42 µM]; TSA no protein: inactive

Structures listed so far that contain fluorine (three):
How did CC(C)NC(=O)Nc1ccc2c(c1)C(=O)N(C)[C@H]1CC[C@H](CC(=O)NCC(F)(F)F)O[C@H]1CO2 do in these assays?
Yeast UUG start: -2.6; FGF22 binding-1: 0.0

Results for O=C(C[C@H]1CC[C@@H]2[C@H](COC[C@@H](O)CN2C(=O)c2ccc(F)cc2)O1)Nc1ccc(-c2ccccc2)cc1 ?
ERp5 inh: -4.0; FGF22 binding-1: -0.2; S100A4 inh HTS: -25.4

What do the screens show for `CNC[C@H]1OCCCC[C@@H](C)Oc2ccc(NC(=O)Nc3ccc(C(F)(F)F)cc3)cc2C(=O)N([C@H](C)CO)C[C@@H]1C`?
ERp5 inh: -2.9; Yeast UUG start: -3.3; FGF22 binding-1: 7.0*; S100A4 inh HTS: -1.7; SIRT5 block: -0.5; FGF22 binding-2: 0.073[42 µM]; TSA no protein: inactive

Next part:
How did COC(=O)C[C@@H]1CC[C@@H]2[C@@H](COc3ccc(NC(=O)c4cscn4)cc3C(=O)N2C)O1 do in these assays?
ERp5 inh: 1.6; Yeast UUG start: 13.1; FGF22 binding-1: 0.0; S100A4 inh HTS: -7.3; SIRT5 block: -2.0

How did CC(C)NC(=O)N(C)C[C@H]1Oc2ccc(NC(=O)c3ccncc3)cc2CC(=O)N([C@H](C)CO)C[C@H]1C do in these assays?
ERp5 inh: 14.9; Yeast UUG start: -0.2; FGF22 binding-1: 0.1; S100A4 inh HTS: 0.7; SIRT5 block: -1.6

How did CC(C)NC(=O)N(C)C[C@H]1OCCCC[C@H](C)Oc2ccc(N(C)C)cc2C(=O)N([C@H](C)CO)C[C@H]1C do in these assays?
ERp5 inh: 2.0; FGF22 binding-1: 208.7*; S100A4 inh HTS: 14.4; SIRT5 block: 2.5; FGF22 binding-2: 0.168[42 µM]; TSA no protein: inactive

Results for O=C(Nc1ccc(F)c(Cl)c1)c1ccccc1 ?
ERp5 inh: 0.1; PDI inh: -5.2; Yeast UUG start: -28.6; FGF22 binding-1: 0.7; S100A4 inh HTS: 25.3
